The values that follow come from paper PMC11597202, “Novel Thiazole-Fused [4,5-g] or [5,4-g]Quinazolin-8-ones and Their Quinazoline Analogues: Synthesis and Biological Evaluation” (Pharmaceuticals, 2024).

Holding throughout (format): biochemical
The target of one assay is T1, GSK-3β (Homo sapiens, UniProt P49841).
T1 construct: host or cells: Sf9 insect cells (baculovirus)
Description: ADP-Glo kinase inhibition assay, GSK-3β. To be noted: read-out: Residual activity GSK-3β. The method, then:
(§1) Kinase enzymatic activities were assayed in 384-well plates using the ADP-Glo^TM assay kit (Promega, Madison, WI, USA) according to the recommendations of the manufacturer. This luminescent ADP detection assay was described by Zegzouti and co-workers and provides a homogeneous and high-throughput screening method to measure kinase activity by quantifying the amount of ADP produced during a kinase reaction. Briefly, the reactions were carried out in a final volume of 6 µL for 30 min at 30 °C in an appropriate kinase buffer (10 mM MgCl2, 1 mM EGTA, 1 mM DTT, 25 mM Tris-HCl pH 7.5, 50 µg/mL heparin), with peptide or protein as substrate in the presence of 10 µM ATP. Peptide substrates were obtained from ProteoGenix (Schiltigheim, France) or Sigma for Histone H1, Poly (L-glutamic acid–L-tyrosine) sodium salt, Casein and MBP. After that, 6 µL of ADP-Glo^TM Kinase Reagent was added to stop the kinase reaction. […] The transmitted signal was measured using the Envision (PerkinElmer, Waltham, MA, USA) microplate luminometer and expressed as Relative Light Units (RLUs). Kinase activities are expressed as percentages of remaining kinase activities detected after treatment with 1 or 10 µM of the tested compounds. The maximum kinase activity was measured in the absence of inhibitor but with an equivalent dose of DMSO (solvent of the tested compounds). […]

The target in a further assay is T2, CK-1ε (Homo sapiens, UniProt P49674).
T2 construct: host or cells: Sf9 insect cells (baculovirus)
In words: ADP-Glo kinase inhibition assay, CK-1ε. The following applies: read-out: Residual activity CK-1ε. Here is the method: as §1

A further assay deals with T3, DYRK1A (Homo sapiens, UniProt Q13627).
T3 construct: host or cells: Sf9 insect cells (baculovirus)
Description: ADP-Glo kinase inhibition assay, DYRK1A. The following applies: read-out: Residual activity DYRK1A.

Molecules are shown by their SMILES.

In the case of `COC(=N)c1nc2ccc3ncnc(Nc4ccc(OC)cc4F)c3c2s1` [Compound II, methyl 9-[(2-fluoro-4-methoxyphenyl)amino]thiazolo[5,4-f]quinazoline-2-carbimidate, reference compound], the results for the remaining activity at 1 µM on GSK-3β, on CK-1ε and at DYRK1A were 29%, 44% and 16%, respectively. Also, the remaining activity at 10 µM at GSK-3β was 13%; on CK-1ε it was 19%.
